The species entered for assay [1] is Homo sapiens. Nature of the assay: Selectivity ratio of Ki for human kappa opioid receptor to Ki for human delta opioid receptor.
The species named for assay [2] is Homo sapiens. Kind of assay: Selectivity ratio of Ki for human mu opioid receptor to Ki for human delta opioid receptor.

In the case of `Oc1ccc2c(c1)[C@@]13CCCC[C@H]1[C@@H](C2)N(CC1CCC1)CC3`, the Ratio Ki in the assay filed under Homo sapiens [1] was 3; in the assay listed under Homo sapiens [2] it was 75.

Values taken from ChEMBL document CHEMBL1156604 (Bioorg Med Chem Lett, 2008).
